ChEMBL document CHEMBL4834435, “Discovery of Potent Coumarin-Based Kinetic Stabilizers of Amyloidogenic Immunoglobulin Light Chains Using Structure-Based Design” (J Med Chem, 2021)

Sequences of proteins named here, by UniProt entry; tags and fusion partners are left off.
UniProt P01721, whole entry, looked up, stated change not applied: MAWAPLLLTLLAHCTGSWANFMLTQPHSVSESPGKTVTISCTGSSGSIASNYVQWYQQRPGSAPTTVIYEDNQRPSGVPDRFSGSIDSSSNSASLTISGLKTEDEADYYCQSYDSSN

Tests used:
[1] = target: Immunoglobulin lambda variable 6-57 (Homo sapiens, UniProt P01721, F49Y/T46L); assay: Stabilization of AL patient derived fluorescein-labeled IGLV6-57 T46L/F49Y mutant measured after 24 hrs by proteolysis coupled-fluorescence polarization assay
[2] = Protein binding in human plasma at 2 uM after 4 hrs by UPLC-MS/MS analysis; assay type: ADME, cell-free
[3] = target: Immunoglobulin lambda variable 6-57 (Homo sapiens, UniProt P01721); assay: Stabilization of AL patient derived full length fluorescein-labeled IGLV6-57 expressed in Escherichia coli BL21 (DE3) measured after 24 hrs by proteolysis coupled-fluorescence polarization assay

SMILES | EC50 [1] [nM] | PPB [2] [%] | EC50 [3] [nM]
Cc1c(CCN2CC3(CCN(c4nccn5ccnc45)CC3)NC2=O)c(=O)oc2cc(O[C@@H](C)c3ccccc3)ccc12 | 5.5 |  | 
Cc1c(CCN2CC3(CCN(c4nccn5ccnc45)CC3)NC2=O)c(=O)oc2cc(O[C@H](C)c3ccccc3)ccc12 |  | > 99.5 | 4.1
